Results taken from patent US20250171454A1, “HETEROBIFUNCTIONAL PYRIDINYLMETHYL AMINOPURINE AND RELATED COMPOUNDS AND THEIR USE IN NSD2 DEGRADATION AND TREATING MEDICAL CONDITIONS” (K36 Therapeutics, Inc., priority 2023, published 2025).

Amino acid sequences for entries named in this document (tags omitted). Residues count along the entry.
UniProt O96028, 2-1365 limits assumed: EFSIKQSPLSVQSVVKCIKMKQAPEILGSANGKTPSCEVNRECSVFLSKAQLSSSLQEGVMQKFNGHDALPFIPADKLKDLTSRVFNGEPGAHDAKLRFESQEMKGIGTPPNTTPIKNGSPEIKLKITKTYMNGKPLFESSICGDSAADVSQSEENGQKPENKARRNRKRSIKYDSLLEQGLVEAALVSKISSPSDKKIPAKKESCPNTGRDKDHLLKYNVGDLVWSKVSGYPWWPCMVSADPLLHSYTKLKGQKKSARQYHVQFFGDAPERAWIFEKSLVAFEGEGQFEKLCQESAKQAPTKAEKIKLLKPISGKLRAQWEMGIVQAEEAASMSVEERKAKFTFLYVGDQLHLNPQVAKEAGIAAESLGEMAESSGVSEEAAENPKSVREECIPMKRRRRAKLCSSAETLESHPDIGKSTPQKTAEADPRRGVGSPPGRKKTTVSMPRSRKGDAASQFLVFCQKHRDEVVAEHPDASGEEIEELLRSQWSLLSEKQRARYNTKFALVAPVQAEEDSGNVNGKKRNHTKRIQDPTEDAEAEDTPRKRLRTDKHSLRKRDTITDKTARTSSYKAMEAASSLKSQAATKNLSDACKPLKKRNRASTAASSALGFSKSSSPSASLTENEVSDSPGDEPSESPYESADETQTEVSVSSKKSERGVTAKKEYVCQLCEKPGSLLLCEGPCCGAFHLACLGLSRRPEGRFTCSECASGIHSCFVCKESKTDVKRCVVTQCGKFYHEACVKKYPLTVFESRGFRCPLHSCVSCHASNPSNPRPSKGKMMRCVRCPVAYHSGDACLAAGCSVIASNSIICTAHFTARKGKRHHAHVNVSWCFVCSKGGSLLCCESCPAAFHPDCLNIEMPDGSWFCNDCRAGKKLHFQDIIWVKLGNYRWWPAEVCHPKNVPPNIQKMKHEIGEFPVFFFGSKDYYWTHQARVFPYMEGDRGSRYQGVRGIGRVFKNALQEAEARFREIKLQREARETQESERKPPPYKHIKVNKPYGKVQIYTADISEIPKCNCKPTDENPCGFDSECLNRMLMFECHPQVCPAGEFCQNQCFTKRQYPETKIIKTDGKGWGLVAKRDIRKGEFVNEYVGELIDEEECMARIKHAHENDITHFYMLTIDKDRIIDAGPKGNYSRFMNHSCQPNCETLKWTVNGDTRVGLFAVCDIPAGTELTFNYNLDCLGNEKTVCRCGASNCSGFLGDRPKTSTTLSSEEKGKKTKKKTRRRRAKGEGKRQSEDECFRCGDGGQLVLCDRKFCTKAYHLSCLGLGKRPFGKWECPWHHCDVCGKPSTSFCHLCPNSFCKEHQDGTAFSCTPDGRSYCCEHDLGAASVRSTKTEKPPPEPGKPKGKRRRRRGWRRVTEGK

Molecular target: recombinant human NSD2 (amino acids 2-end) with N-terminal His tag (Homo sapiens (Human), UniProt O96028)
Test: NSD2 inhibitory activity, modified RBC HotSpot HMT Assay
Type: biochemical
Protocol: Exemplary compounds were tested for NSD2 inhibitory activity using a modified RBC HotSpot HMT Assay.
A reaction mixture was prepared by adding oligonucleosomes from chicken (0.05 mg/mL) to freshly prepared reaction buffer containing 50 mM Tris-HCl (pH 8.5), 50 mM NaCl, 5 mM MgCl2, 0.01% Brij35, 1 mM DTT, and 1% DMSO followed by the addition of recombinant human NSD2 (amino acids 2-end) with N-terminal His tag (2 nM; GenBank Accession No. NM_001042424; MW=155.5 kDa; expressed in Sf9 insect cells) and gentle mixing. The test compounds were diluted in DMSO (to 10 mM), and added to the reaction mixture in nanoliter amounts by using Acoustic Technology (Echo 550, LabCyte Inc. Sunnyvale, CA) and incubated for 20 minutes at room temperature. […] The reaction mixture was delivered to filter paper, and the methylated substrate was quantified by scintillation counting.
Data analysis was performed using Excel and GraphPad Prism software for IC50 curve fits. For additional information on the histone methyltransferase assay, see, for example, Horiuchi K Y, et al., “Assay Development for Histone Methyltransferases,” Assay Drug Dev Technol.

IC50: > 1000 nM
Structure (SMILES): Nc1ncnc2c1ncn2[C@@H]1O[C@H](CSCC[C@H](N)C(=O)O)[C@@H](O)[C@H]1O [SAH, S-(5′-adenosyl)-L-homocysteine, reference compound]
